Compounds with a hit are over-represented: about 1.2% of the library has one in this group of screens.
Yeast UUG start: modulators of yeast start codon fidelity, primary screen, whole organism, S. cerevisiae, single point, plate reader; S. cerevisiae UUG-firefly luciferase reporter, luminescence/redox ratio; activity score, % at 18.7 µM; 0.13% of 350,000 active; AID 602363, 2012;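 active = replicate mean at a twofold rise or more, about +100% in these data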;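 also: firefly luciferase made from a UUG start codon reports start codon fidelity; reporter light over untreated wells divided by growth signal over untreated wells; some hits fall short of that in this replicate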
miR122 inh: miR-122 inhibition in Huh7 cells; Huh7 miR-122 Renilla luciferase sensor, 48 h; neutral wells = 0, positive control = 100; activation (reporter increase), % at 12.5 µM; 340,000 compounds, 0.3% hits;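 active means mean replicate activation score at least 90 and every replicate individually at or above 90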;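 further: higher luciferase means less miR-122 activity so hits act as miR-122 inhibitors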
Statin myotox sup: protects C2C12 myotubes from simvastatin toxicity | ATP luminescence, 48 h; scaled: DMSO 0, geranylgeraniol control 100 | rescue of ATP level, % at 7.49 µM | 330,000 compounds, 0.78% hits | AID 602340;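 active means mean ATP rescue above about 67%, or every replicate alone reaching that limit, limit read from the data, passing the limit was not always enough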;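 further: myotubes were challenged with 10 µM simvastatin during compound exposure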
Cneo AK release: Cryptococcus neoformans lysis via adenylate kinase release. C. neoformans lysis, adenylate kinase release luminescence, 4 h; normalised: neutral wells 0, clomiphene wells 100. lysis activity, % at 15 µM. 360,000 compounds, 0.2% hits. AID 651654;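 active means mean lysis activity across replicates of at least 80%, whatever share of replicates individually reach that level; inactive means mean lysis activity below 80%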
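Material – Cryptococcus neoformans yeast cells · Quantity – 5 × 10^6 yeast cells/mL · Buffer or medium – YPD medium · Compound – single dose · Timing – 4 h static compound exposure, 37 °C, read 1 h post-reagent · Signal – adenylate kinase release luminescence · Read-out basis – lysis from increased AK signal · Benchmarks – Clomiphene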
The depositor's hits bear a star; · = no result given; [ ] = dose if it differs, or a comment.

Order of values: Yeast UUG start, miR122 inh, Statin myotox sup, Cneo AK release
1	CCNC(=O)Nc1ccc2c(c1)C(=O)N(C)[C@@H]1CC[C@H](CC(=O)N[C@@H](C)c3ccccc3)O[C@@H]1CO2
  ·, ·, -12, 193*
2	CCNC(=O)Nc1ccc2c(c1)C(=O)N(C)[C@H]1CC[C@H](CC(=O)N[C@@H](C)c3ccccc3)O[C@H]1CO2
  ·, ·, -5, 91*
3	Cc1ccnc(N2CCCC(C(=O)NCc3cccs3)C2)n1 (centres undefined)
  -12, 0, 11, -1
4	Cc1cc(C)nc(N2CCCC(C(=O)NCc3cccs3)C2)n1 (centres undefined)
  -9, -7, 127*, 3
5	COc1ccc(C(=O)Nc2ccc3c(c2)C(=O)N(C)C[C@@H](OC)[C@H](C)CN(C(=O)C2CC2)[C@H](C)CO3)cc1
  ·, ·, 3, 1
6	O=C(CCCOc1ccccc1)N1CCCCC1
  -10, -5, 94*, 1
7	C[C@@H]1CCCCO[C@@H](CN(C)C(=O)Nc2ccc(F)cc2)[C@H](C)CN([C@H](C)CO)C(=O)c2cc(NC(=O)CCC(F)(F)F)ccc2O1
  8, 7[16.7 µM], ·, 4
8	CC(=O)c1c(C(C)=O)c(C)n(NC(=O)c2ccc(Cl)cc2)c1C
  10, 9, ·, 0
9	CC(=O)c1c(C(C)=O)c(C)n(Cc2ccc(Cl)cc2)c1C
  -2, -17, 144*, -1
10	CN1CCN(C(=O)C[C@H]2C[C@H]3c4cc(NC(=O)C5CCOCC5)ccc4O[C@H]3[C@@H](CO)O2)CC1
  -2, 1[16.7 µM], 0, -11
11	C[C@H](CO)N1C[C@H](C)[C@@H](CN(C)Cc2ccc3c(c2)OCO3)Oc2ccc(NS(=O)(=O)c3ccc(F)cc3)cc2CC1=O
  6, -3[16.7 µM], 150*, 1
12	CC(C)NC(=O)Nc1ccc2c(c1)CC(=O)N([C@@H](C)CO)C[C@H](C)[C@H](CN(C)Cc1ccc3c(c1)OCO3)O2
  ·, 3[16.7 µM], -28, 107*
13	CC(C)NC(=O)Nc1ccc2c(c1)CC(=O)N([C@@H](C)CO)C[C@@H](C)[C@@H](CN(C)Cc1ccc3c(c1)OCO3)O2
  ·, 2[16.7 µM], -26, -1
14	C[C@@H]1CN([C@@H](C)CO)C(=O)Cc2cc(NS(=O)(=O)c3ccc(F)cc3)ccc2O[C@H]1CN(C)Cc1ccc2c(c1)OCO2
  5, -10[16.7 µM], 63, -3
15	C[C@H]1CN([C@@H](C)CO)C(=O)Cc2cc(NS(=O)(=O)c3ccc(F)cc3)ccc2O[C@@H]1CN(C)Cc1ccc2c(c1)OCO2
  -2, -9[16.7 µM], 124*, -2
16	C[C@@H]1CN([C@H](C)CO)C(=O)Cc2cc(NS(=O)(=O)c3ccc(F)cc3)ccc2O[C@@H]1CN(C)Cc1ccc2c(c1)OCO2
  0, 3[16.7 µM], 20, 42
17	C[C@H](CO)N1C[C@H](C)[C@H](CN(C)Cc2ccccc2C(F)(F)F)OCc2cn(nn2)CCCC1=O
  -18, 2[16.7 µM], 17, 4
18	CC(C)NC(=O)N(C)C[C@@H]1Oc2ncc(C#CC3(O)CCCC3)cc2C(=O)N([C@@H](C)CO)C[C@@H]1C
  11, -2[16.7 µM], 7, 54
19	CNC(=O)C[C@@H]1CC[C@@H]2[C@H](COC[C@H](O)CN2S(=O)(=O)c2cccc(Cl)c2)O1
  ·, 10[16.7 µM], 6, 100*
20	Cc1ccc(S(=O)(=O)N2C[C@@H](O)COC[C@H]3O[C@H](CC(=O)NCc4ccc5c(c4)OCO5)CC[C@@H]32)cc1
  48, 37[16.7 µM], -4, 104*
21	Cn1cnc(S(=O)(=O)N2C[C@H](O)COC[C@H]3O[C@@H](CC(=O)NC4CCCC4)CC[C@@H]32)c1
  ·, 87[16.7 µM], 9, -3
22	O=C(C[C@@H]1CC[C@@H]2[C@H](COC[C@H](O)CN2S(=O)(=O)c2cccc(Cl)c2)O1)Nc1ccccc1
  10, 0[16.7 µM], 15, -5
23	Cn1cnc(S(=O)(=O)N2C[C@@H](O)COC[C@H]3O[C@@H](CC(=O)NC4CCCC4)CC[C@@H]32)c1
  ·, 127*[16.7 µM], -4, 51
24	C[C@H](CO)N1C[C@H](C)[C@H](CN(C)S(C)(=O)=O)Oc2ccc(NS(=O)(=O)c3cn(C)cn3)cc2C1=O
  -14, -3[16.7 µM], 42, -3
25	COc1ccc(Cl)cc1C(=O)n1nc(C)cc1C
  -20, 1, 107*, 13
26	COc1cccc(OC)c1C(=O)n1nc(C)cc1C
  -23, 4, 5, -2
27	COc1ccc(NC(=O)Nc2ccc3c(c2)C(=O)N([C@@H](C)CO)C[C@H](C)[C@H](CN(C)Cc2ccc(C(F)(F)F)cc2)O3)cc1
  32, 150*[16.7 µM], -5, 40
28	C[C@@H]1CN([C@H](C)CO)C(=O)c2cc(NC(=O)Nc3ccc(C(F)(F)F)cc3)ccc2O[C@H]1CN(C)Cc1ccc(-c2ccccc2)cc1
  16, 1[16.7 µM], ·, -3
29	C[C@H](CO)N1C[C@H](C)[C@@H](CN(C)Cc2ccc(-c3ccccc3)cc2)Oc2ccc(NC(=O)Nc3ccc(C(F)(F)F)cc3)cc2C1=O
  8, -4[16.7 µM], ·, 99*
30	O=C(N[C@@H]1CC[C@H](CCn2cc(C3(O)CCCC3)nn2)O[C@@H]1CO)C1CC1
  -6, ·, 1, 0
31	CCOC(=O)C1=C(C)NC(=O)C(C(N)=O)C1c1ccccc1 (centres undefined)
  -3, -7, 111*, -2
32	CCOC(=O)C1=C(C)NC(=S)N(C=O)C1c1ccccc1 (centres undefined)
  ·, -4, ·, ·
33	CO[C@H]1CN(C)C(=O)c2cc(NC(=O)C3CC3)ccc2OC[C@@H](C)N(Cc2cncnc2)C[C@H]1C
  ·, ·, -1, 84*
34	CCCNC(=O)Nc1ccc2c(c1)C(=O)N(C)C[C@H](OC)[C@@H](C)CN(Cc1cccnc1)[C@H](C)CO2
  11, ·, 1, 81*
35	CCCC(=O)Nc1ccc2c(c1)OC[C@H](C)N(Cc1cncnc1)C[C@@H](C)[C@H](OC)CN(C)C2=O
  -12, ·, 0, 1
36	COc1ccccc1C(=O)Nc1ccc2c(c1)C(=O)N(C)C[C@@H](OC)[C@@H](C)CN(CC1CC1)[C@H](C)CO2
  -3, ·, 33, -11
37	CCCC(=O)Nc1ccc2c(c1)OC[C@@H](C)N(Cc1cncnc1)C[C@@H](C)[C@@H](OC)CN(C)C2=O
  7, ·, 7, 94*
38	COc1ccccc1C(=O)Nc1ccc2c(c1)C(=O)N(C)C[C@H](OC)[C@@H](C)CN(CC1CC1)[C@@H](C)CO2
  6, ·, 13, 96*
39	Cc1cc(OC(C)C(=O)N(Cc2ccco2)C2CCS(=O)(=O)C2)cc(C)c1Cl (centres undefined)
  -17, -10, 23, 4
40	CC(Oc1ccc(Cl)cc1Cl)C(=O)N(Cc1ccco1)C1CCS(=O)(=O)C1 (centres undefined)
  9, -1, 115*, 1
41	CCCC(=O)Nc1ccc2c(c1)OC[C@@H](C)N(C(=O)C1CCCC1)C[C@@H](C)[C@@H](OC)CN(C)C2=O
  7, -12[16.7 µM], -1, -1
42	C[C@H](CO)N1C[C@H](C)[C@H](CN(C)S(=O)(=O)c2ccc(C#N)cc2)Oc2ncc(-c3cc4ccccc4o3)cc2C1=O
  4, -1[16.7 µM], 95*, -2
43	C[C@H](CO)N1C[C@H](C)[C@H](CN(C)C(=O)Nc2ccccc2)Oc2ncc(-c3cc4ccccc4o3)cc2C1=O
  0, -7[16.7 µM], 92*, 2

Two compounds from above, showing only Statin myotox sup, Cneo AK release and miR122 inh.
| item | compound | Statin myotox sup | Cneo AK release | miR122 inh |
| --- | --- | --- | --- | --- |
| 37 | CCCC(=O)Nc1ccc2c(c1)OC[C@@H](C)N(Cc1cncnc1)C[C@@H](C)[C@@H](OC)CN(C)C2=O | 7 | 94* | · |
| 38 | COc1ccccc1C(=O)Nc1ccc2c(c1)C(=O)N(C)C[C@H](OC)[C@@H](C)CN(CC1CC1)[C@@H](C)CO2 | 13 | 96* | · |

miR122 inh, entries above that show a hit.
No.	structure	Yeast UUG start	miR122 inh
23	Cn1cnc(S(=O)(=O)N2C[C@@H](O)COC[C@H]3O[C@@H](CC(=O)NC4CCCC4)CC[C@@H]32)c1	·	127*[16.7 µM]
27	COc1ccc(NC(=O)Nc2ccc3c(c2)C(=O)N([C@@H](C)CO)C[C@H](C)[C@H](CN(C)Cc2ccc(C(F)(F)F)cc2)O3)cc1	32	150*[16.7 µM]
